Molecular target: Voltage-gated inwardly rectifying potassium channel KCNH2 (Homo sapiens, UniProt Q12809)
Assay: Inhibition of human ERG expressed in CHO cells
Assay type: cell-based

Amino acid sequences for entries named in this document (tags omitted). A change or cut given only in a name is not applied to a line headed by its entry.
UniProt Q12809: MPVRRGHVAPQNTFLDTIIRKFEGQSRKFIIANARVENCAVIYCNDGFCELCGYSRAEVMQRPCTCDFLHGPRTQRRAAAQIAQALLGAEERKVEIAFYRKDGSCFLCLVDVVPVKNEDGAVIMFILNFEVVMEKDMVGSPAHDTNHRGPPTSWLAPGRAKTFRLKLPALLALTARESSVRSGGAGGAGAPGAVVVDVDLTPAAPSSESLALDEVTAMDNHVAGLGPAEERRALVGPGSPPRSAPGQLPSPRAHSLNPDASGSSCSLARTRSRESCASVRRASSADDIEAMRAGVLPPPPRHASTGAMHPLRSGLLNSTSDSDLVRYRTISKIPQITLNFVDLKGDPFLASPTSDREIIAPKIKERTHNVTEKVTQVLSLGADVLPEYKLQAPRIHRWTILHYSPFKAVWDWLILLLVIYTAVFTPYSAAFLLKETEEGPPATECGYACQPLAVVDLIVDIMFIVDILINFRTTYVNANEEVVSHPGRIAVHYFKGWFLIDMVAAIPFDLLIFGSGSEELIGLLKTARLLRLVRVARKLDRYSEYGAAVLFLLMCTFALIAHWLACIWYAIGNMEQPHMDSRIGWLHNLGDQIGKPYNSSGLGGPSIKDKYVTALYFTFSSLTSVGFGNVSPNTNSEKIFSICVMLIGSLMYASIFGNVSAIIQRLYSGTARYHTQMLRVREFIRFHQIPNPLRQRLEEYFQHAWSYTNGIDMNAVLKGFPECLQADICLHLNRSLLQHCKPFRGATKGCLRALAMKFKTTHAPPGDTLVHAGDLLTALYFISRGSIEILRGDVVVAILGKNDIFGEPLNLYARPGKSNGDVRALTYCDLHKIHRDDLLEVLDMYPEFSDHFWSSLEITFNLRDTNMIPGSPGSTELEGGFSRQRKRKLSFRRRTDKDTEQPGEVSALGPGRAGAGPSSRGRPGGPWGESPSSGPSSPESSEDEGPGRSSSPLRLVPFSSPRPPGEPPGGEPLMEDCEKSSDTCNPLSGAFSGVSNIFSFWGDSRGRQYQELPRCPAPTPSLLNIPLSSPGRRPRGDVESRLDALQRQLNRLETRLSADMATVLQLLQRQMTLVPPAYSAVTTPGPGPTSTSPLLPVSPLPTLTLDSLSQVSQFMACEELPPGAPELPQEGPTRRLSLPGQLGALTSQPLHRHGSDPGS

O[C@@H](c1cc(C(F)(F)F)nc2c(C(F)(F)F)cccc12)[C@H]1CCCCN1 (relative stereo) [(S,R)-MEFLOQUINE]
Ki: 1900 nM

From ChEMBL document CHEMBL3098117, “Identification and optimization of an aminoalcohol-carbazole series with antimalarial properties” (ACS Med Chem Lett, 2013)
